Test results: ChEMBL document CHEMBL1131908, “Delta opioid binding selectivity of 3-ether analogs of naltrindole” (Bioorg Med Chem Lett, 1999)

Sequences of proteins named here, by UniProt entry; tags and fusion partners are left off.
UniProt P33535, whole entry: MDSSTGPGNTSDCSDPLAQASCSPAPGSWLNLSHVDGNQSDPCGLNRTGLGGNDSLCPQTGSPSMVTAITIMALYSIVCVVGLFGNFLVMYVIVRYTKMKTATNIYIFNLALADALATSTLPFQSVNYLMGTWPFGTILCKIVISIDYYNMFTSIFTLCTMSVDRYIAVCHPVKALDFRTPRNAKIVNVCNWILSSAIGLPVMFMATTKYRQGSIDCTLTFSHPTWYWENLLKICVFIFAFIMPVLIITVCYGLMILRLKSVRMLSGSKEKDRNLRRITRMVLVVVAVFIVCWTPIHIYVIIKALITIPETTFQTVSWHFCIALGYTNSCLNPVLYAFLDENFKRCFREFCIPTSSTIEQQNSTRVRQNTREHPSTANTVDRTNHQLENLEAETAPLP

Molecular target: Mu-type opioid receptor (Rattus norvegicus, UniProt P33535)
Test: Ability to inhibit binding of [3H]DAMGO to mu opioid receptor

SMILES: Oc1ccc2c3c1O[C@H]1c4[nH]c5ccccc5c4C[C@@]4(O)[C@@H](C2)N(CC2CC2)CC[C@]314 [NALTRINDOLE]
- Ki: 3.2 nM
